# Only a part is listed here, and it is no random draw. Activity calls are given as the source filed them. No stated cut-off is given here; in the data, active means inhibition above about 22%; inactive means the rest.
# Assay: fluorescence retest of MPTP screen hits in isolated mitochondria, single concentration (AID 624504);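 further: 0% = DMSO vehicle and 100% = positive control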
# Settings: membrane potential, Rhodamine 123 fluorescence, at 10 µM, active compounds read high
row,SMILES,inhibition
1,O=[N+]([O-])c1cc([N+](=O)[O-])c(Nc2ccc(Cl)cc2)c([N+](=O)[O-])c1,active: 78.1%
2,O=[N+]([O-])c1cc([N+](=O)[O-])c(Nc2cccnc2)c([N+](=O)[O-])c1,active: 95.2%
